PubChem BioAssay AID1662 (Broad Institute, 2009)
The entries are a selection whose mix differs from that of the whole data set. The source made the active and inactive calls.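 How the source made its calls: active means mean replicate score, as percent of positive control median, at least 50; inconclusive means mean below 50 but one replicate at or above 50; inactive means mean and every replicate below 50.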

Experiment: S. pyogenes SKKanGAS growth inhibitors in kanamycin, primary screen, streptokinase expression inhibitor project, SKKanGAS strain, BacTiter-Glo luminescence (AID 1662);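 further: strain carries kanamycin resistance gene driven by streptokinase promoter and grows in 40 µg/ml kanamycin; loss of luminescence reflects streptokinase promoter inhibition or plain growth inhibition; 0% = median of DMSO wells and 100% = positive control at its reference dose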
Details: 6 h, at 7.5 µM, stronger effect = higher value

Row | SMILES | inhibition
1 | Cc1c2non([O-])c-2c(C)[n+](=O)[n+]1[O-] | inactive: 0.057%
2 | O=C(NC(Sc1ccncn1)C(Cl)(Cl)Cl)c1ccccc1 (configuration not stated) | inactive: -11.3%
3 | CC(C)CC(=O)NC(Sc1ccc(Cl)cc1)C(Cl)(Cl)Cl (configuration not stated) | inactive: 34.5%
4 | Nc1cc(N)c2nonc2c1[N+](=O)[O-] | inactive: -6.6%
5 | Cc1ccc(NP(=O)(Oc2ccccc2)Oc2ccccc2)nc1 | inactive: 2%
6 | C=C1C/C(=C/C)C(=O)O[C@@H]2CCN3CC=C(COC(=O)[C@]1(C)O)[C@H]23 | inactive: -0.262%
7 | CCc1nc2c(n1)c1c(non1O)c1c2no[n+]1[O-] | inactive: 7.31%
8 | O=[N+]([O-])c1cc([N+](=O)[O-])c(CCNc2ccccc2)c([N+](=O)[O-])c1 | inactive: 30.8%
9 | O=[N+]([O-])c1cccc2n[nH]nc12 | inactive: 0.85%
10 | CC(=O)N1C2C3N(C(C)=O)C1C1N(C(C)=O)C(C(N1C(C)=O)N3C(C)=O)N2C(C)=O | inactive: -2.89%
11 | COc1ccc(C2=NCC(CBr)S2)cc1 (configuration not stated) | inactive: 1.38%
12 | CC1CCN(C(=O)Oc2c(Cl)cc(Cl)c3cccnc23)CC1 | inactive: 45.3%
13 | CC(C)=N/N=C(\N)N[N+](=O)[O-] | inactive: -8.54%
14 | CN(C)C(=O)OCCc1n(C)cc[n+]1C | inactive: -1.38%
15 | CCN(/C(=N/P(=O)(N1CCOCC1)N1CCOCC1)N1CCOCC1)c1ccc(OC)cc1 | inactive: 9.27%
16 | Nc1ccc([As](=O)(O)c2ccc(N)cc2)cc1 | inactive: -14.8%
17 | C[N+]1=C2C=CC=CC=C2SC12C([N+](=O)[O-])=CC([N+](=O)[O-])=C[C-]2[N+](=O)[O-] (configuration not stated) | inactive: 9.47%
18 | O=C(Nc1cc([As](=O)(O)O)ccc1O)c1ccccc1 | inactive: 0.327%
19 | O=C(O)CNc1ccc([As](=O)(O)O)cc1 | inactive: -0.953%
20 | O=[N+]([O-])c1cccc(NC2=NCC(CBr)S2)c1 (configuration not stated) | inactive: -2.03%
21 | O=[N+]([O-])c1ncn(CCn2ncnc2[N+](=O)[O-])n1 | inactive: -6.29%
22 | CC(C)(C)C(=O)NC(Sc1ccncn1)C(Cl)(Cl)Cl (configuration not stated) | inactive: -0.729%
